# Apparent affinities of Ab-14 variants for a coronavirus HR2 peptide

Binding partner: SARS-CoV-2 spike HR2 peptide, sequence PDVDLGDISGINAS.

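Phage display of a naive human antibody library on the peptide gave the parent. This is the validation round: designs drawn from the data on random variants, tested in the same kind of assay. Several design methods are mixed in this list. The scFvs were displayed on barcoded MATa yeast, the peptide on MATalpha yeast. Binding brings cells together so that they mate, and sequencing counts the barcode pairs among the diploids. Scores were corrected for input abundance and mapped to Kd with protein pairs of known affinity run in the same pool. There are six technical replicates.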

Each scFv is VH, the linker GGGGSGGGGSGGGGS, VL, as in the parent Ab-14, and differs from it in the CDRs of the heavy chain only.
VH: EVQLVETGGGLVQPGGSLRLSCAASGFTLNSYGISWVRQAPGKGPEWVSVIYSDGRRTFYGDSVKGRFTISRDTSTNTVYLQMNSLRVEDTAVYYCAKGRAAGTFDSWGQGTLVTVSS
VL: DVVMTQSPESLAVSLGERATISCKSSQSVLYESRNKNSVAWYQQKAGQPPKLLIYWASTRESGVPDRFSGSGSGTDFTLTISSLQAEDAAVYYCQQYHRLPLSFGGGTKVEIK

Sequences are complete VH domains.
The Kd shown is the geometric mean over detected replicates; a lower Kd is a better binder.
Where no diploid with the target was found in any replicate, the entry reads "no signal": below detection, most likely a poor binder, though not proof of it.
Empty control strains, which show no peptide, gave a signal in 1% of pairings with all heavy chain designs; the median was 120 nM and 95% of these signals were weaker than 7.0 nM. No background was subtracted.

VH | apparent Kd | detected
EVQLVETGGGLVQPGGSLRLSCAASGFTLNSYGISWVRQAPGKGPEWVSVIYSRCRRTFYDDSVKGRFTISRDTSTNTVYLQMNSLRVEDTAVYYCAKGQLAGTFDSWGQGTLVTVSS | no signal | 0/6
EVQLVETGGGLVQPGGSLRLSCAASGFDLEEQGVSWVRQAPGKGPEWVSVIYADGKRAQYSDNVKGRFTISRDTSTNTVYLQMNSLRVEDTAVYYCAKGYSTGFIDVWGQGTLVTVSS | no signal | 0/6
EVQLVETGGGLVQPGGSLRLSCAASGFDLNEYGISWVRQAPGKGPEWVSVIYADGQRTFYADNVKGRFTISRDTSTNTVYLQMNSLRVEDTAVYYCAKGNVAGTFDQWGQGTLVTVSS | 370 pM | 6/6
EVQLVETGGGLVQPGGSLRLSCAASGFTLNEYGISWVRQAPGKGPEWVSVIYSDGRRTFYKDSVKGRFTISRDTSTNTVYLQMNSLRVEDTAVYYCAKGRIAGTFDSWGQGTLVTVSS | 460 pM | 6/6
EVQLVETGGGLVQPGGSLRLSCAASGFSLNSYGISWVRQAPGKGPEWVSVIYSDGKRTFYADNVKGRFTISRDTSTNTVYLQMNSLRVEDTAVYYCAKGRAAGTFDSWGQGTLVTVSS | 2.3 nM | 6/6
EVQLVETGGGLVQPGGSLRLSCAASGFDLNEYGISWVRQAPGKGPEWVSVIYADGQRTFYADSVKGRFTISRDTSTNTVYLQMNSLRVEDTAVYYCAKGNAAGTFDSWGQGTLVTVSS | 250 pM | 6/6
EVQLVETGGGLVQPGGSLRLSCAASGFELNEYGISWVRQAPGKGPEWVSVIYSDGRRTFYSDQVKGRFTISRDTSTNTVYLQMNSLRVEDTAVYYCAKGRTAGTFDSWGQGTLVTVSS | 570 pM | 6/6
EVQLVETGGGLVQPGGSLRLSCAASGFSLNDYGISWVRQAPGKGPEWVSVIYSDGRRTFYCDSVKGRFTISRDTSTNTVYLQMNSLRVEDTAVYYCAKGRTAGTFDSWGQGTLVTVSS | 8.8 nM | 6/6
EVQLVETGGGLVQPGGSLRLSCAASGFQLEDYGISWVRQAPGKGPEWVSVIYADGRRTAYAADVKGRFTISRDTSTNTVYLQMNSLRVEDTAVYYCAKGQNNVVSGGWGQGTLVTVSS | no signal | 0/6
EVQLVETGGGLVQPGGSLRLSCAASGFDLNEYGISWVRQAPGKGPEWVSVIYADGRRTFYIDSVKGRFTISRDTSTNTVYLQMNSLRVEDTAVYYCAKGTNGGTFDVWGQGTLVTVSS | 540 pM | 6/6
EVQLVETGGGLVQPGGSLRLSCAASGFTLNEYGISWVRQAPGKGPEWVSVIYSDGRRTFYSDSVKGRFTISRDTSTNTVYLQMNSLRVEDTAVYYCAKGRAAVTFDTWGQGTLVTVSS | no signal | 0/6
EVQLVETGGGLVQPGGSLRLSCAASGFDLNEYGISWVRQAPGKGPEWVSVIYADGMRTQYTDSVKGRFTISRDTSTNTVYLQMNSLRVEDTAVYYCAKGNEAGTFDSWGQGTLVTVSS | no signal | 0/6
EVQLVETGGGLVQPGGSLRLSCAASKFTLNSYGISWVRQAPGKGPEWVSVIYSDGKRTFYKDSVKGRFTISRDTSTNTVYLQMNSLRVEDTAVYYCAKGRTAGTFDSWGQGTLVTVSS | 29 nM | 2/6
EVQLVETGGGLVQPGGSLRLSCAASGFSLNSYGISWVRQAPGKGPEWVSVIYSDGRRTFYADNVKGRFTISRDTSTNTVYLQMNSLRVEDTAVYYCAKGKTAGTFDSWGQGTLVTVSS | 1.6 nM | 6/6
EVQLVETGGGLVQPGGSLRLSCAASGKSLNSYGISWVRQAPGKGPEWVSVIYSDGRRTFYKDSVKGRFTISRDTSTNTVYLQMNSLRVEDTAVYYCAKGRTAGTFDSWGQGTLVTVSS | 1.8 µM | 1/6
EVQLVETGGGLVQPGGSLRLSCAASGFDLMEYGISWVRQAPGKGPEWVSVIYADGMRQYYANKFKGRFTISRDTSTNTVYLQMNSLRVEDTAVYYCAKGEISASGLIWGQGTLVTVSS | no signal | 0/6
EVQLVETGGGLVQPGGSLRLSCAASGFDLNEYGISWVRQAPGKGPEWVSVIYADGRRTAYTDSVKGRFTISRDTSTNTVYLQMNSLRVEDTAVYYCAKGNNAGTFDQWGQGTLVTVSS | 310 pM | 6/6
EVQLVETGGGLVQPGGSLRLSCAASGFTLNSYGISWVRQAPGKGPEWVSVIYSDGLRTFYADSVKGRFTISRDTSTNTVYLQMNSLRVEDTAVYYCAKGRAAGTFDSWGQGTLVTVSS | 4.7 nM | 10/12
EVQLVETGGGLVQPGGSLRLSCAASGFDLNEYGISWVRQAPGKGPEWVSVIYADGKRTAYADSVKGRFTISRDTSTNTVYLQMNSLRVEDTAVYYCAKGNVAGTFDLWGQGTLVTVSS | 180 pM | 6/6
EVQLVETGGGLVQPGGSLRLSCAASGFELNSYGISWVRQAPGKGPEWVSVIYSDGRRTFYCDSVKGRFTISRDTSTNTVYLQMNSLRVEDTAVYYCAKGQLAGTFDSWGQGTLVTVSS | 66 pM | 1/6
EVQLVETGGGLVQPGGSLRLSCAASGFTLNSYGISWVRQAPGKGPEWVSVIYSDGWRTFYVDSVKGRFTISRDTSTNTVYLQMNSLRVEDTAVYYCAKGHVAGTFDSWGQGTLVTVSS | 72 nM | 1/6
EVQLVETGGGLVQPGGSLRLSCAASGFTLNSYGISWVRQAPGKGPEWVSVIYSDGVRTFYGDSVKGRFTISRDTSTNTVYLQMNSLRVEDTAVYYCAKGRMAGAFDSWGQGTLVTVSS | no signal | 0/6
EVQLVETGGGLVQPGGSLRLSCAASGFTLNSYGISWVRQAPGKGPEWVSVIYSDGRRTFYGDSVKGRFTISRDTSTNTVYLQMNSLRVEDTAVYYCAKGRAAGTFWSWGQGTLVTVSS | no signal | 0/6
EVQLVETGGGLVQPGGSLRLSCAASGFDLDEYGISWVRQAPGKGPEWVSVIYADGRRTFYSDSVKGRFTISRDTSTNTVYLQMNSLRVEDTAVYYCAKGGTAGTFDVWGQGTLVTVSS | 690 pM | 6/6
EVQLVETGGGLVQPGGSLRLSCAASGKDLQEYGVSWVRQAPGKGPEWVSVIYADGMRKSYADSVKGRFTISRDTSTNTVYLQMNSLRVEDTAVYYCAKGNHAGYLDKWGQGTLVTVSS | no signal | 0/6
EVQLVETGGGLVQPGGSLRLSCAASGFDLNEYGISWVRQAPGKGPEWVSVIYADGVRTAYIDSVKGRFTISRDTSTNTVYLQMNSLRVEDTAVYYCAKGQNAGTFDVWGQGTLVTVSS | 530 pM | 6/6

Top 2 of the variants detected in all replicates, tightest first:

VH	apparent Kd	detected
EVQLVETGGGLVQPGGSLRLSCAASGFDLNEYGISWVRQAPGKGPEWVSVIYADGKRTAYADSVKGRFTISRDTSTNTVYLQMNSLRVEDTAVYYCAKGNVAGTFDLWGQGTLVTVSS	180 pM	6/6
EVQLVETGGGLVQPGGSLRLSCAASGFDLNEYGISWVRQAPGKGPEWVSVIYADGQRTFYADSVKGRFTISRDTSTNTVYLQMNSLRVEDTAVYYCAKGNAAGTFDSWGQGTLVTVSS	250 pM	6/6

A sequence that the file lists under several names has all its replicates pooled.
Values of this round are not directly comparable with the first-round values of the same sequences.
The parent sequence was in this pool as ten entries: three were never detected, three once, and four in most replicates, with averages from 2.2 nM to 240 nM.
In the paper, a design with two or fewer of six values counts as a poor binder.

From the AlphaSeq antibody data of Li et al. 2023 (doi:10.1038/s41467-023-39022-2), copy in the FLAb collection.